Data taken from patent US20090311271A1.

Experiments:
Human oxidized LDL = experiment: ELISA: oxLDL coated on the plate, His-LOX-1 titrated, detected with goat anti-LOX-1 and HRP secondary antibody, OD450
[1] = molecular target: purified recombinant human CRP (human) (UniProt P02741); experiment: ELISA: CRP coated on the plate, His-LOX-1 titrated, detected with goat anti-LOX-1 and HRP secondary antibody, OD450

Row | Substance | EC50 (read off the curve) (Human oxidized LDL) [µg/mL] | EC50 (read off the curve) [1] [µg/mL]
1 | purified recombinant human LOX1 comprised of the extracellular domain (ECD) of human LOX-1 (amino acids 61-273) with an N-terminal polyhistidine tag (from UniProt P78380 61-273) (receptor) | 2 | 
2 | purified recombinant human LOX1 comprised of the extracellular domain (ECD) of human LOX-1 (amino acids 61-273) with an N-terminal polyhistidine tag (from UniProt P78380 61-273) (receptor; other documents disagree on this pair) |  | 2
